One assay deals with human TLR7 (Homo sapiens (Human), UniProt Q9NYK1). The experiment in a line: HEK-Blue TLR7 reporter assay for TLR7 agonist activity. It counts as cell-based. To be noted: read-out: TLR7 Agonism (EC50); HEK-Blue TLR7 cells, SEAP reporter, 18 h treatment. On the technique in general: A reporter such as luciferase makes a cellular process visible.
The subject of another assay is interleukin 6 (IL-6). The experiment in a line: IL-6 induction in human whole blood (AlphaLISA). Particulars: read-out: IL-6 Induction (EC50), 37° C., 20 h. (In general: Alpha assays give light when donor and acceptor beads are brought close together.)

Sequences of proteins named here, by UniProt entry; tags and fusion partners are left off. Residues count along the entry.
UniProt Q9NYK1, 27-1049 limits assumed: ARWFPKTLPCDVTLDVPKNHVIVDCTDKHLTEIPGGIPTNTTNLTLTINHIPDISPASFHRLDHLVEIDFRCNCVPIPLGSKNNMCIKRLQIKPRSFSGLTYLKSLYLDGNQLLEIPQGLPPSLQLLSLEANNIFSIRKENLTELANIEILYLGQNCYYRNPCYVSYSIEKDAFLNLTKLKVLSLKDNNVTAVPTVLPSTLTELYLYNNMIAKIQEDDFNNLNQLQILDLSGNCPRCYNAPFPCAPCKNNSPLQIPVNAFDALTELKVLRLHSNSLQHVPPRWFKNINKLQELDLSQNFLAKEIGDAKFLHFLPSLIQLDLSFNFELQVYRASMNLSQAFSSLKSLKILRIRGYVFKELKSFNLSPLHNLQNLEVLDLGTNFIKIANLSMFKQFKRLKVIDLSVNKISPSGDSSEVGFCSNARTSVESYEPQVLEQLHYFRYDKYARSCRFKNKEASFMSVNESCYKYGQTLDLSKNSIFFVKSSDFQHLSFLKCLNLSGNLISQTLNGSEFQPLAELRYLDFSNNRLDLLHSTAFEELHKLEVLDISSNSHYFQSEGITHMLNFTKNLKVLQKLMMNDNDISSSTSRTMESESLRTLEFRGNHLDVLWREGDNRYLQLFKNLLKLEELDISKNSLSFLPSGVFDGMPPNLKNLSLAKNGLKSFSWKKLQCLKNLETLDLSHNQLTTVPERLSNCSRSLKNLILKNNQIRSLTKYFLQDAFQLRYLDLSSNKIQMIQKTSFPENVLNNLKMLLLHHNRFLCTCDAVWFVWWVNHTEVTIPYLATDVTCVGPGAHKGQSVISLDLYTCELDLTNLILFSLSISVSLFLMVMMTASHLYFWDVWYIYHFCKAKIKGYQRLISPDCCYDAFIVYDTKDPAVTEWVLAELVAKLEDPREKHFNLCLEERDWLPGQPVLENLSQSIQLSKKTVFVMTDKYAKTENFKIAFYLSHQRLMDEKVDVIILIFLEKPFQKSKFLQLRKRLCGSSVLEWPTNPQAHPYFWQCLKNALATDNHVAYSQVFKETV

Two compounds from patent US10919895B2, “Toll-like receptor 7 (TLR7) agonists having a pyridine or pyrazine moiety, conjugates thereof, and methods and uses therefor” (BRISTOL-MYERS SQUIBB COMPANY, priority 2017, dated 2021) can be followed below.

As a reminder, the EC50 is the concentration at which the effect is half-maximal.

As for `CCCCOc1nc(N)c2nc(O)n(Cc3cnc(CNCCO)cn3)c2n1`, the EC50 at human TLR7 turned out to be 770 nM.
Turning to `CCCCOc1nc(N)c2nc(O)n(Cc3ccc(CNC4CCC4)nc3)c2n1`, the EC50 with interleukin 6 (IL-6) was 22 nM; on human TLR7 it was 3.6 nM.
